Measurements as given in PubChem BioAssay AID485272 (The Scripps Research Institute Molecular Screening Center, 2010).
This is a selection; strong and weak results do not stand in their true shares. Active and inactive are the calls of the source.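 Rule for the calls: active = percent inhibition above a cutoff equal to the mean of all tested compounds plus 3 SD (cut at about 15% in these data); inactive = the rest.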

Protein sequences, listed by entry. Tags and fused reporters are not part of them.
UniProt Q9UM07, whole entry: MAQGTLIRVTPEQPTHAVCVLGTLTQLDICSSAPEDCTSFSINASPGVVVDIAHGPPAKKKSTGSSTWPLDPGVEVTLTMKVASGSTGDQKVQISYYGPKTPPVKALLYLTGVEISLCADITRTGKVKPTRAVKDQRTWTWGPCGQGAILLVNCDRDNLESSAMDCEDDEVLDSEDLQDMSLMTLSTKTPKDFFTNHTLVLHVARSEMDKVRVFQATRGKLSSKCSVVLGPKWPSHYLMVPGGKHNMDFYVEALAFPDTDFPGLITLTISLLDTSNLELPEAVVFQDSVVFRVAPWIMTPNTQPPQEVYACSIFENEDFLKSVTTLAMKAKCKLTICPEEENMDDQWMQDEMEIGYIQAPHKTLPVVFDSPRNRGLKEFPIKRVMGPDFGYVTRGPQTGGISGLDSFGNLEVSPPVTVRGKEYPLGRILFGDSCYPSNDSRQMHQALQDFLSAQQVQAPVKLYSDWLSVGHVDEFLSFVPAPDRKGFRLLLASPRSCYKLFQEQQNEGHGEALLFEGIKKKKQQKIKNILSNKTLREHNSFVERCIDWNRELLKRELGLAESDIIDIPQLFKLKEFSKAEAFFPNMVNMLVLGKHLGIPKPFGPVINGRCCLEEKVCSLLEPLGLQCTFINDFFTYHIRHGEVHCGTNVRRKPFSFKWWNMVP

molecular target: Protein-arginine deiminase type-4 (Homo sapiens) (UniProt Q9UM07); assay: protein arginine deiminase 4 enzyme blockade – biochemical, fluorescence polarization, 1536-well format, primary screen (AID 485272); settings: recombinant PAD4, RCA probe fluorescence polarization; at 6.36 µM; active compounds read high;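 note: 0% = PAD4 with RCA probe and DMSO and 100% = probe without PAD4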

| Compound | inhibition |
| --- | --- |
| CCC(=O)N(c1ccccc1)C1(COC)CCN(CCc2cccs2)CC1 | inactive: -2.32% |
| CCC(=O)N(c1ccccc1)C1(COC)CCN(CCn2nnn(CC)c2=O)CC1 | inactive: -1.03% |
